Measured values taken from PMC6889161, “Inhibitory characteristics of flavonol-3-O-glycosides from Polygonum aviculare L. (common knotgrass) against porcine pancreatic lipase” (Scientific Reports, 2019).

Target: T1, Lipase from porcine pancreas type II (pancreatic lipase) (Sus scrofa, UniProt P00591)
T1 construct: purchased Sigma-Aldrich Co. (St. Louis, MO, USA); host or cells: porcine pancreas (tissue preparation)
T1 sequence (P00591 1-450): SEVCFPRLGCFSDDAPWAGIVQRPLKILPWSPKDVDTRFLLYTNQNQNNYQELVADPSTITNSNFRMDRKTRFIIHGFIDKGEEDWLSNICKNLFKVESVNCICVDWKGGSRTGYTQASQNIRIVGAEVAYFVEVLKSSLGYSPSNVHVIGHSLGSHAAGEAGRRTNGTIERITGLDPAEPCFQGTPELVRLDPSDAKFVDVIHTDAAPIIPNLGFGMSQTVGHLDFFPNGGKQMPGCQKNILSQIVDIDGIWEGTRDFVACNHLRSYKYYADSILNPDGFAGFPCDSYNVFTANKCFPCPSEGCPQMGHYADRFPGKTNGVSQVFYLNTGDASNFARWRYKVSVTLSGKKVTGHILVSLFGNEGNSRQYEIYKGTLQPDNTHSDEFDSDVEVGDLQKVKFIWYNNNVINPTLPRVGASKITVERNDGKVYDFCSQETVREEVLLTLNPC
Experiment: Pancreatic lipase inhibition assay (4-MUO substrate, fluorescence)
Type: biochemical
Conditions: from RRA of PL at various concentrations, nonlinear regression
Procedure: The PL assay using 4-MUO as a substrate was conducted as described previously with slight modification[28],[29]. Lipase from porcine pancreas type II (i.e., pancreatic lipase) was dissolved in 50 mM Tris-HCl buffer (pH 8.0) to give 10 mg/mL, and centrifuged at 5,000 g for 10 min to remove insoluble material before the enzyme assay. Then, 50 µL of 0.5 mM 4-MUO solution dissolved in the above buffer and 100 µL of the sample solution dissolved in methanol (i.e., the inhibitor solution) were mixed in 96-well microplate to form the reaction system. The enzymatic hydrolysis was initiated by adding 50 µL of the PL solution to the reaction system (final 250 units/mL) at 37 °C. […] The inhibitory activities against PL were calculated for comparison with each other, as follows:1 Inhibition(%)=A0−AS/A0×100 where A0 is the relative fluorescence unit after the reaction for 30 min in the absence of sample (i.e., only methanol) and AS is the fluorescence unit in the presence of sample.
To determine the IC50, the RRA of PL in the presence of the sample at various concentrations was evaluated. […]

Substance “myricetin-3-O-α-L-rhamnopyranoside [Myricitrin]” has an IC50 of 92.9 µM.
